## Ab-14 heavy chain CDR variants: yeast mating affinities

Values reported by Li et al. 2023, doi:10.1038/s41467-023-39022-2 (FLAb copy).

All variants were tested on one target, the spike HR2 peptide PDVDLGDISGINAS (SARS-CoV-2).

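Phage display of a naive human antibody library on the peptide gave the parent. This is the validation round: designs drawn from the data on random variants, tested in the same kind of assay. Group labels follow the data file (Ctrl: baseline library sampled from a position-specific scoring matrix, with some repeated check sequences; Rand: our label for a block that the file lists under HC and that is probably the random mutants of the ten best first-round binders; En: ensemble of fine-tuned language models; GP: Gaussian process model; GPLM: also part of the Gaussian process libraries; HC: hill climbing; Gen: genetic algorithm; Gibbs: Gibbs sampling; a sequence that several methods proposed may carry one label only). The scFvs were displayed on barcoded MATa yeast, the peptide on MATalpha yeast. Pairs that bind mate more often; barcode pairs of the diploids are counted by sequencing. A regression on co-assayed BCL2-family reference pairs converts the normalised counts of each replicate to an apparent Kd. There are six technical replicates.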

Parent: Ab-14, a human scFv built as VH, a (GGGGS)3 linker, VL. Only the CDRs of the heavy chain vary.
VH: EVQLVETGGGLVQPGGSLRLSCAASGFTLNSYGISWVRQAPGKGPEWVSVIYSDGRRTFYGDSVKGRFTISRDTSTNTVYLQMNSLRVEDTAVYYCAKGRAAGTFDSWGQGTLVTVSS
VL: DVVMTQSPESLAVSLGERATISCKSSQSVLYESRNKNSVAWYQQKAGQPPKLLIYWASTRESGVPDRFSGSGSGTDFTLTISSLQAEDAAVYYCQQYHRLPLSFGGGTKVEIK

Variants are written as CDR1, CDR2 and CDR3 of the heavy chain (limits as in the source). Parent: GFTLNSYGIS, VIYSDGRRTFYGDSVK, GRAAGTFDS. Affinities are written as log10 Kd with Kd in nM; a lower number is a better binder. Replicates are averaged; those with no signal do not enter the mean. A pair that was not seen in any replicate is written "nd"; this usually means weak binding, but a binder can also be missed. Values of this round are not directly comparable with the first-round values of the same sequences.

CDR-H1,CDR-H2,CDR-H3,group,"mean, log10 nM",detected
GFDLNSYGIS,VIYSDGRRTFYADMVK,GKAAGTFDS,GP_Gen,nd,0/6
GFSIDEYGIS,VIYADGMRARYSDAVK,GVKVGNVIM,En_Gibbs,1.90,1/6
GFSLNSYGIS,VIYSDGRRTAYSDSVK,GKAAGTFDS,GP_Gibbs,-0.30,6/6
GKSLDEYGIS,VIYADGLRKVYANNVK,GQFDDAMDL,En_Gibbs,nd,0/6
GFQLNDYGIS,VIYSDGRRTWYGDSVK,GRAAGTFDS,GP_HC,1.27,6/6
GFDLNEYGIS,VIYADGRRTFYADSVK,GNVAGTFFQ,En_HC,-0.54,6/6
GFDVMEYGIS,VIYADGMRQAYANKVK,GGITSSGLI,En_Gibbs,nd,0/6
GFTLNEYGIS,VIYSDGRRTFYGDSVK,GRMAGTFDQ,Ctrl,0.78,6/6
GFTLNSYGIS,VIYSDGRRTFYGDSVK,GYGAGFFDS,Ctrl,nd,0/6
GFTLNSYGIS,VIYSDGRRTFYDDSVK,GQLAGHFYS,Rand,nd,0/6
GFSLNSYGIS,VIYSDGRRTFYGDSVK,GMNAGTFDS,GPLM_Gibbs,0.19,6/6
GFDLNEYGVS,VIYADGFRTAYTDTVK,GNIFDAIMA,En_Gibbs,nd,0/6
GFTLNEYGIS,VIYSDGRRTFYGDYVK,ERAAVTFDQ,Rand,nd,0/6
GFSLNEYGIS,VIYSDGRRTFYGDSVK,GRAALTFDE,GP_HC,3.84,2/6
GFDLNSYGIS,VIYSDGRRTFYGDSVK,GKTAGTFDF,GP_Gen,0.21,6/6
GFELNEYGIS,VIYSDGWRTFYGDSVK,GRTAGTFDS,GPLM_Gibbs,0.46,6/6
GFELDEYGIS,VIYADGKRKFYAQTVK,GKTDGMILD,En_Gibbs,nd,0/6
GFTLNSYGIS,VIYSDGLRTFYHDSVK,GRQAGTFDT,GP_Gibbs,0.75,4/6
GFDLNEYGIS,VIYADGVRTAYADKVK,GTNAGTFDV,En_Gen,-0.03,6/6
GFQLNMYGIS,VIYSDGRRTFYADSVK,GQTAGTFDS,GP_Gibbs,1.17,5/6
GFTLNEYGIS,VIYSDGRRTFYGDSVK,GRYAGTFDD,GP_HC,1.77,1/6
NFTLVSYGIS,VIYADGRRTFYGDSVK,GRAAGTTKS,Rand,nd,0/6
GFNLSEYGIS,VIYADGNRTFYAPNVK,GQFNDVLNM,En_Gibbs,nd,0/6
GFNLNSYGIS,VIYSDGYRTFYGDSVK,GRAAGTFDS,Ctrl,1.43,5/6
GFTLDSYGIS,VIYSDGRRTFYGDSVK,GRVAGTFDV,GP_HC,0.92,6/6
GFDLNEYGIS,VIYADGKRTAYADSVK,GTNAGTFDQ,En_Gen,0.39,6/6
GFTLNSYGIS,VIYSDGKRTFYGDSVK,GQAAGTFDS,GPLM_Gibbs,2.00,6/6
GGDLNEYGIS,VIYADGVRKNYDDSVK,GQTGLFLNI,En_Gibbs,nd,0/6
GFSLQEYGIS,VIYADGMRAQYTPNVK,GQTGFDYTL,En_Gibbs,nd,0/6
GFDLNEYGIS,VIYADGHRTFYSDSVK,GQSAGTFDV,En_HC,-0.31,6/6
GFDLNEYGIS,VIYADGMRTFYTDSVK,GANAGTFDV,En_HC,-0.50,6/6
GFELNSYGIS,VIYSDGRRTFYDDSVK,GKTAGTFDS,GP_Gen,-1.17,3/6
GFTLNSYGIS,VIYSDGRRTFYSDSVK,GEAAGTFDT,GPLM_Gen,0.32,6/6
HFTLNFYGIS,VIYSDGKRTFYGDSVK,GRATGTFDS,Ctrl,nd,0/6
GFTLNEYGIS,VIYSDGRRTFYGDSEK,GKVAGTFDV,Ctrl,nd,0/6
GFSLNSYGIS,VIYSDGKRTFYGDRVK,GQTAGTFDS,GP_Gibbs,0.56,6/6
GFTLNSYGIS,VIYSDGKRTFYGDSVK,GRNGGRFPS,Ctrl,nd,0/6
GFKLDEYGIS,VIYADGQRKHYADSVK,GQIDVYYTA,En_Gibbs,4.52,2/6
GFDLNEYGIS,VIYADGQRTFYSDSVK,GQTAGTFDE,En_HC,-0.50,6/6
GFSLNEYGIS,VIYSDGRRTYYGDSVK,GRAAGTFDS,GPLM_Gen,-0.12,6/6
GFTLNSYGIS,VIYSDGRRTFYGDSVK,GRAAGRFDS,Ctrl,nd,0/6
GFQLNEYGIS,VIYSDGRRTFYGDSVK,GRSAGTFDT,GP_Gibbs,0.40,6/6
GFTLDSYGIS,VIYSDGRRTFYGDAVK,GRAAGTALS,Rand,nd,0/6
GFALRSYGIS,VIYSDGERTFYSDSVK,GRAAGFFDS,Ctrl,3.67,1/6
GFTLNQYGIS,VIYSDGRRTFYKDSVK,GRAAGFFDS,Rand,nd,0/6
GFDLNEYGIS,VIYADGKRTAYADSVK,GEIAGTFDV,En_Gen,-0.77,6/6
GFQLNSYGIS,VIYSDGRRTFYKDSVK,GRAAGTFDS,GP_HC,1.46,3/6
GFTLNSYGIS,VIYSDGRRTFYSDQVK,GRAAGTFSS,Ctrl,nd,0/6
GFDLNSYGIS,VIYSDGRRTFYGDSVK,GRAAWTFES,GP_HC,nd,0/6
GFDLNEYGIS,VIYADGMRTAYTDSVK,GTNAGTFDQ,En_Gen,-0.49,6/6
GFDLDEYGIS,VIYADGLRQVYQDNVK,GVGFTTFID,En_Gibbs,nd,0/6
GFNLNSYGIS,VIYSDGRRTFYADMVK,GRTAGTFDS,GP_Gen,1.05,2/6
GFNLNSYGIS,VIYSDGMRTFYIDSVK,GRQAGTFDS,GP_Gibbs,2.06,6/6
GQSLDDYGIS,VIYADGKRKAYVDEVK,GYVAGTFDI,En_Gibbs,1.94,3/6
GFTLNSYGIS,VIYSDGHRTFYGDSVK,GQLAGTFDS,GPLM_HC,0.63,1/6
GFHLNSYGIS,VIYSDGRRTFYIDSVK,GRIAGTFDS,GP_HC,nd,0/6
GFTLNEYGIS,VIYSDGRRTFYWDSVK,GRAAVTFDL,GP_HC,nd,0/6
GFTLNSYGIS,VIYSDGRRTFYGDSVK,GRAAGTDDV,Ctrl,nd,0/6
GFTLNEYGIS,VIYSDGRRTFYSDSVK,GFAAGTFDL,GP_HC,0.12,6/6
GFDLNSYGIS,VIYSDGRRTFYIDSVK,GQEAGTFDS,GP_Gen,1.64,2/6
GFTLNSYGIS,VIYSDGRRTFYGDSVK,GRAAWTFDS,Ctrl,nd,0/6
GFDLNSYGIS,VIYSDGRRTFYADSVK,GREAGTFDT,GPLM_Gibbs,0.14,6/6
GFTLNSYGIS,VIYADGFRTFYGDSVK,GREAGQFDS,Ctrl,nd,0/6
GFDLNEYGIS,VIYADGRRTFYADSVK,GNTAGTFNV,En_HC,-0.39,6/6
GKTLDEYGIS,VIYADGMRTQYIDSVK,GGIDGWNMI,En_Gibbs,nd,0/6
GFDLNEYGIS,VIYADGLRQAYEDSVK,GRNIIGFLF,En_Gibbs,1.34,2/6
GFTLNSYGIS,VIYSDGRRTSYSDSVK,GRAAGTFDS,Ctrl+GPLM_HC,0.84,11/12
GFDLNEYGIS,VIYADGVRTAYADDVK,GNQAGTFDV,En_Gen,-0.47,6/6

From the list, the first 8 with no signal in any replicate:

CDR-H1	CDR-H2	CDR-H3	group	mean, log10 nM	detected
GFDLNSYGIS	VIYSDGRRTFYADMVK	GKAAGTFDS	GP_Gen	nd	0/6
GKSLDEYGIS	VIYADGLRKVYANNVK	GQFDDAMDL	En_Gibbs	nd	0/6
GFDVMEYGIS	VIYADGMRQAYANKVK	GGITSSGLI	En_Gibbs	nd	0/6
GFTLNSYGIS	VIYSDGRRTFYGDSVK	GYGAGFFDS	Ctrl	nd	0/6
GFTLNSYGIS	VIYSDGRRTFYDDSVK	GQLAGHFYS	Rand	nd	0/6
GFDLNEYGVS	VIYADGFRTAYTDTVK	GNIFDAIMA	En_Gibbs	nd	0/6
GFTLNEYGIS	VIYSDGRRTFYGDYVK	ERAAVTFDQ	Rand	nd	0/6
GFELDEYGIS	VIYADGKRKFYAQTVK	GKTDGMILD	En_Gibbs	nd	0/6

The parent sequence was in this pool as ten entries: three were never detected, three once, and four in most replicates, with averages from 0.34 to 2.37. In the paper, a design with two or fewer of six values counts as a poor binder. Background: pairings of all heavy chain designs with three empty control strains gave a value in 1% of cases (median 2.08, 5th percentile 0.84). Values in that range, when seen in few replicates, are hard to tell from nonspecific mating. Where one sequence has several entries in the source, the replicates are pooled.